“And” between values parts separate entries of the source, which are not always exact repeats. Equal values may be shown once. For part of these data: This list holds what a sample rich in hits left over. Records with an inconclusive call do not appear. The list shows a part of the results, in another mix than the full data. The source made the active and inactive calls. Unless noted, calls come from the whole dose curve; as a rule, active = well fitted curve in the direction sought with a large enough effect in the repeat runs; inconclusive = weak or mixed curves; inactive = no such curve, though single readings can be large; an effect the other way counts as inactive or inconclusive.
What was measured:
[1] = qHTS assay to identify small molecule antagonists of the retinoic acid receptor (RAR) signaling pathway (AID 1159552; note: nearly all actives have a fitted effect of over 50% in size; note: potency is the fitted concentration of half-maximal effect)
Outline: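 Luminescence from a RARE luciferase reporter in C3RL4 cells served as read-out. Cells received compounds together with 1 uM final retinol and incubated 6 hr at 37 C before detection reagent was added for 30 min at room temperature.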

Chains of the proteins cited; added tags and fusions are not shown. Lines headed by an entry give the natural chain unless they say otherwise; changes in a name come on top.
UniProt Q92731, whole entry, looked up: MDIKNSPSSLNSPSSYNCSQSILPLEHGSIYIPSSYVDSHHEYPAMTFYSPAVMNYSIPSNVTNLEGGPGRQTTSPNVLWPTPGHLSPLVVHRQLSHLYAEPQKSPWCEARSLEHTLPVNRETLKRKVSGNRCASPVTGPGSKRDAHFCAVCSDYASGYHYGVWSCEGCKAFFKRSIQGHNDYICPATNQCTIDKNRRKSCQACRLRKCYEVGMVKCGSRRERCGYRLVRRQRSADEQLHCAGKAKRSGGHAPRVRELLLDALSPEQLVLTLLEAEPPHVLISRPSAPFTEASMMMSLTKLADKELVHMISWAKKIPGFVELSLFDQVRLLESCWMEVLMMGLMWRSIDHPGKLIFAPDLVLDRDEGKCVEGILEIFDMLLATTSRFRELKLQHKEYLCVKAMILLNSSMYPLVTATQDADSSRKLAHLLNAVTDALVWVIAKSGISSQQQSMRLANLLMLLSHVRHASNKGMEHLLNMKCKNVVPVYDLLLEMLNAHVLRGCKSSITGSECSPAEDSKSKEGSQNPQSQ
UniProt P10275: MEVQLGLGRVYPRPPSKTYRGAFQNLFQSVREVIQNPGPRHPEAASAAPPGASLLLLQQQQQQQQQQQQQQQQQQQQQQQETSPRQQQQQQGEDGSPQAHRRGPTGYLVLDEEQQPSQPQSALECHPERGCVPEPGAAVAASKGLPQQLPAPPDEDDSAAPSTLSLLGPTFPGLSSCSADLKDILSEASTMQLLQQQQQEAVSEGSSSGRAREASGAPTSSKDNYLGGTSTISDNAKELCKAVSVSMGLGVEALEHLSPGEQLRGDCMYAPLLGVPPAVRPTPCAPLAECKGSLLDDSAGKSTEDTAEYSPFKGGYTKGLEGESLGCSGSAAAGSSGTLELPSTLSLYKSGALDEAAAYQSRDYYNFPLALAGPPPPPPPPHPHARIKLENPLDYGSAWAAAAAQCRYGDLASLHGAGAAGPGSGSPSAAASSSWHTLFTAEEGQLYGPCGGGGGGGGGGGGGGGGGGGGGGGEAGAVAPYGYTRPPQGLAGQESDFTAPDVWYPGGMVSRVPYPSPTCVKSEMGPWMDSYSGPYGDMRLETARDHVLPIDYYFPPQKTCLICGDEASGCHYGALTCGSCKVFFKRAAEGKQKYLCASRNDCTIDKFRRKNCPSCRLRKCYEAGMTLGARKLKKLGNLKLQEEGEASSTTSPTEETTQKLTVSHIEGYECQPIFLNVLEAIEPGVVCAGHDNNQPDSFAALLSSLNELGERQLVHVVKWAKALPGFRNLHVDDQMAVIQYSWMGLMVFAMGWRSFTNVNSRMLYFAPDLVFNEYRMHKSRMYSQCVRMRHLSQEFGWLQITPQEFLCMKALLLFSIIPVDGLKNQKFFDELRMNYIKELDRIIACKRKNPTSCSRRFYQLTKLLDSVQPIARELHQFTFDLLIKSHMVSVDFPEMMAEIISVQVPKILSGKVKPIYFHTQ
UniProt P22303: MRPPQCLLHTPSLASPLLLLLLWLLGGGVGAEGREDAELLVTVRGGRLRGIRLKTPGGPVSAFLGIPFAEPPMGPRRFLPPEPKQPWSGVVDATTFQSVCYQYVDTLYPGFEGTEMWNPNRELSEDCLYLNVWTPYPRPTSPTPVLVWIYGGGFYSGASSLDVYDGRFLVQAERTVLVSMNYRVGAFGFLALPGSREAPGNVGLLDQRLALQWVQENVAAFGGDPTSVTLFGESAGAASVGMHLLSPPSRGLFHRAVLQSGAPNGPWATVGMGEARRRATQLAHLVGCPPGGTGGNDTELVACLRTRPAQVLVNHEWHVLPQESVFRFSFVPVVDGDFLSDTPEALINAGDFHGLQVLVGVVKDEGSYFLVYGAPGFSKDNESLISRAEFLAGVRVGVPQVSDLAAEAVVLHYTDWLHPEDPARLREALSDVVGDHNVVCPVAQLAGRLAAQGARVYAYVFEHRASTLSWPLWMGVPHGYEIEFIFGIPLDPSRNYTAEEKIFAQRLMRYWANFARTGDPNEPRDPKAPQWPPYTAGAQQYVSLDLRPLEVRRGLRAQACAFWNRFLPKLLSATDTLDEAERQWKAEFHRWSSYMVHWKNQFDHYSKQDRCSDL
UniProt Q96RI1: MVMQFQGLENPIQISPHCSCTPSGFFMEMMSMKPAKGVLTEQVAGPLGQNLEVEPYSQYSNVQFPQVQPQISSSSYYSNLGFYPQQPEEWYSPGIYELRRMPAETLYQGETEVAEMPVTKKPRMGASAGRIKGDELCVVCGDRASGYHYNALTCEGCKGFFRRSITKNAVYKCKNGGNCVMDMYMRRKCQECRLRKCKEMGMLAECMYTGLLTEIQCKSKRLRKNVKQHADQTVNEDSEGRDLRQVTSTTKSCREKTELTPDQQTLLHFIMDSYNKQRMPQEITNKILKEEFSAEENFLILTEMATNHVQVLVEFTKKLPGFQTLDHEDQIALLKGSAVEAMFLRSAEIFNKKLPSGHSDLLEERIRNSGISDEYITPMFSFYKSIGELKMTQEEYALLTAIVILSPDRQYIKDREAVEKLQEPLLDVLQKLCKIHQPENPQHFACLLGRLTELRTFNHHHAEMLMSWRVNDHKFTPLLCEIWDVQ
UniProt P03372, whole entry, looked up: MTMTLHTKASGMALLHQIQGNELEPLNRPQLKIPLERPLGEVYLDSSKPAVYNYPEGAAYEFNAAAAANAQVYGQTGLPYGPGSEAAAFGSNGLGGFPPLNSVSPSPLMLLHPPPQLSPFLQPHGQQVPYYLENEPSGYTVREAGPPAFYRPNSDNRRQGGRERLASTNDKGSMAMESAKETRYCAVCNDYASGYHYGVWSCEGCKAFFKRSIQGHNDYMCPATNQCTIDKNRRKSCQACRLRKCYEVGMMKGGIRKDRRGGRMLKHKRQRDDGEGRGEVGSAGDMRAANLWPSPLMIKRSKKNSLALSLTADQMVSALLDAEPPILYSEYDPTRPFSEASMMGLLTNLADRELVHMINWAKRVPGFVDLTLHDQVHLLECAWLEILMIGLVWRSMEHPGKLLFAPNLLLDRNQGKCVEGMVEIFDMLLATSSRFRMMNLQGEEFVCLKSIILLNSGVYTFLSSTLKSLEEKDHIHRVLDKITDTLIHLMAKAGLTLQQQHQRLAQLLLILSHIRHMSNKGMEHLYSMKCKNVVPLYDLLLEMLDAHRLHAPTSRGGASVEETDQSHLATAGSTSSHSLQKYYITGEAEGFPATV

[2] = biological target: Estrogen receptor beta (Homo sapiens) (UniProt Q92731); test: qHTS assay to identify small molecule antagonists of the estrogen receptor beta (ER-beta) signaling pathway (AID 1259378; active = well fitted inhibition curve with a large enough effect in the signal ratio in the repeat runs, not every such curve was filed as active; the % refers to the signal ratio; note: potency is the fitted concentration of half-maximal effect)
Outline: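 ER-beta-UAS-bla HEK293T (GripTite) cells in 2% charcoal-stripped FBS medium were preincubated 6 hr at 37C, dosed with compound, then stimulated with 1 nM E2 (final) for 16 hr; beta-lactamase reporter read by B/G FRET fluorescence after 2 hr substrate loading.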

[3] = qHTS assay to identify small molecule agonists of the NFkB signaling pathway (AID 1159509; active = well fitted curve in the direction sought with a large enough effect in the signal ratio in the repeat runs, not every such curve was filed as active; the % refers to the signal ratio); conditions: NFkB-bla ME-180 cells, beta-lactamase FRET ratio, 5 h
Outline: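 Readout: FRET fluorescence, 405 nm excitation, 460/530 nm emission; beta-lactamase expression disrupts FRET. Cells: ME-180 stably carrying NF-kB-driven bla reporter. Compound exposure 5 hr, 37 C, 5% CO2.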

[4] = biological target: Nuclear receptor subfamily 1 group I member 2 (Homo sapiens) (UniProt O75469); test: Human pregnane X receptor (PXR) small molecule agonists, qHTS assay (AID 1346982); note: nearly all actives have a fitted effect of over 35% in size
Outline: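 HepG2 PXR-Luc reporter line, 5% charcoal-stripped FBS; 5 hr pre-incubation, compound (DMSO) 24 hr at 37 C/5% CO2; ONE-Glo 30 min RT; luminescence read-out.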

[5] = biological target: Nuclear receptor subfamily 1 group I member 2 (Homo sapiens) (UniProt O75469); test: CYP3A4 induction through human pregnane X receptor (PXR) by small molecules, qHTS assay (AID 1346984); note: nearly all actives have a fitted effect of over 40% in size
Outline: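 HepG2-derived DPX-2 line carrying PXR plus a CYP3A4-promoter luciferase reporter; cells plated 5 hr, compound-exposed 24 hr at 37C. CYP3A4 activity probed with 3uM (final) Luciferin-IPA for 3hr, then luciferase read after One-Glo.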

[6] = biological target: Androgen receptor (Homo sapiens) (UniProt P10275); test: qHTS assay to identify small molecule antagonists of the androgen receptor (AR) signaling pathway (AID 743035; active = well fitted inhibition curve with a large enough effect in the signal ratio in the repeat runs, not every such curve was filed as active; the % refers to the signal ratio)
[7] = biological target: Androgen receptor (Homo sapiens) (UniProt P10275); test: qHTS assay to identify small molecule agonists of the androgen receptor (AR) signaling pathway using the MDA cell line (AID 743040; note: nearly all actives have a fitted effect of over 20% in size); conditions: MDA-kb2 AR-luc cells, MMTV luciferase, 16 h, hits give high values; at 70.3 µM (top of the series) unless noted
[8] = biological target: Androgen receptor (Homo sapiens) (UniProt P10275); test: qHTS assay to identify small molecule antagonists of the androgen receptor (AR) signaling pathway using the MDA cell line (AID 743042; note: nearly all actives have a fitted effect of over 55% in size)
[9] = biological target: Androgen receptor (Homo sapiens) (UniProt P10275); test: qHTS assay to identify small molecule antagonists of the androgen receptor (AR) signaling pathway using the MDA cell line in the presence of 0.5 nM R1881 (AID 1259243); note: nearly all actives have a fitted effect of over 50% in size
[10] = biological target: Androgen receptor (Homo sapiens) (UniProt P10275); test: qHTS assay to identify small molecule agonists of the androgen receptor (AR) signaling pathway in the presence of an antagonist (AID 1259381; calls by dose curve; note: nearly all actives have a fitted effect of over 15% in size); conditions: MDA-kb2 MMTV-luciferase, AR agonist + nilutamide, 16 h; at 42.5 µM (top of the series)
[11] = biological target: Acetylcholinesterase (Homo sapiens) (UniProt P22303); test: Acetylcholinesterase (AChE) small molecule antagonists: colormetric cell-based qHTS assay (AID 1347395; calls by dose curve; note: nearly all actives have a fitted effect of over 30% in size); conditions: SH-SY5Y cells AChE activity, colorimetric (Ellman); at 52.9 µM (top of the series)
Outline: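 SH-SY5Y cells; cpd 30 min 37 C; + DTNB/acetylthiocholine, 90 min 37 C; colorimetric thiocholine read; qHTS.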

[12] = biological target: Acetylcholinesterase (Homo sapiens) (UniProt P22303); test: Acetylcholinesterase (AChE) small molecule antagonists: enzyme-based qHTS assay (AID 1347397; calls by dose curve; note: nearly all actives have a fitted effect of over 55% in size); conditions: Potency: AChE enzyme activity inhibition
Outline: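 Compound or DMSO vehicle was pin-transferred onto recombinant human AChE (50 mU/mL as dispensed) and left 30 min at room temperature. Acetylthiocholine with DTNB then started the reaction, read colorimetrically 10 min later.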

[13] = biological target: Acetylcholinesterase (Homo sapiens) (UniProt P22303); test: Acetylcholinesterase (AChE) small molecule antagonists: fluorescence cell-based qHTS assay (AID 1347398; calls by dose curve; note: nearly all actives have a fitted effect of over 50% in size); conditions: Potency: AChE activity
Outline: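 Using neuroblastoma SH-SY5Y cells as the enzyme source, test chemicals are preincubated 30 min at 37 C; AChE-driven acetylthiocholine cleavage is then quantified by thiocholine-dependent Thiolite Green fluorescence after 40 min at room temperature.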

[14] = biological target: Acetylcholinesterase (Homo sapiens) (UniProt P22303); test: Acetylcholinesterase (AChE) small molecule antagonists: enzyme-based qHTS assay with human liver microsomes (AID 1347399; calls by dose curve; note: nearly all actives have a fitted effect of over 60% in size); conditions: Potency: qHTS inhibition
Outline: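 Recombinant human AChE (50 mU/mL in the enzyme mix) and human liver microsomes (0.25 mg/mL final) were preincubated with compound and NADPH (0.25 mg/mL final) for 30 min at 37 C. Acetylthiocholine/DTNB was then added; thiocholine was read colorimetrically after 10 min at room temperature.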

[15] = biological target: Nuclear receptor subfamily 1 group I member 2 (Homo sapiens) (UniProt O75469); test: Human pregnane X receptor (PXR) activation by small molecules, qHTS assay (AID 1346985); note: nearly all actives have a fitted effect of over 40% in size
[16] = biological target: Bile acid receptor (Homo sapiens) (UniProt Q96RI1); test: qHTS assay to identify small molecule antagonists of the farnesoid-X-receptor (FXR) signaling pathway (AID 743217; active = well fitted inhibition curve with a large enough effect in the signal ratio in the repeat runs, not every such curve was filed as active; the % refers to the signal ratio); conditions: HEK293T FXR-UAS-bla, beta-lactamase ratio, CDCA-stimulated, 16 h; at 81.1 µM (top of the series) unless noted
Outline: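 Read-out: beta-lactamase FRET fluorescence (LiveBLAzer B/G substrate, 2 h, room temperature) in GeneBLAzer FXR-UAS-bla HEK 293T cells. Compounds were co-dosed with 50 uM chenodeoxycholic acid (final) and incubated 16 h at 37 °C.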

[17] = biological target: Bile acid receptor (Homo sapiens) (UniProt Q96RI1); test: qHTS assay to identify small molecule agonists of the farnesoid-X-receptor (FXR) signaling pathway (AID 743220; active = well fitted activation curve with a large enough effect in the signal ratio in the repeat runs, not every such curve was filed as active; the % refers to the signal ratio); conditions: HEK293T FXR-UAS-bla, beta-lactamase FRET ratio, 16 h; at 62.6 µM (top of the series) unless noted
[18] = biological target: Estrogen receptor (Homo sapiens) (UniProt P03372); test: qHTS assay to identify small molecule antagonists of the estrogen receptor alpha (ER-alpha) signaling pathway (AID 743069; active = well fitted curve in the direction sought with a large enough effect in the signal ratio in the repeat runs, not every such curve was filed as active; the % refers to the signal ratio); conditions: HEK293 ER-alpha-UAS-bla, beta-lactamase ratio, antagonist mode
[19] = biological target: Estrogen receptor (Homo sapiens) (UniProt P03372); test: qHTS assay to identify small molecule agonists of the estrogen receptor alpha (ER-alpha) signaling pathway (AID 743075; calls by dose curve)
[20] = biological target: Estrogen receptor (Homo sapiens) (UniProt P03372); test: qHTS assay to identify small molecule agonists of the estrogen receptor alpha (ER-alpha) signaling pathway using the BG1 cell line (AID 743079); conditions: BG1Luc4E2 cells, ERE-luciferase agonist, 22 h; note: nearly all actives have a fitted effect of over 20% in size
[21] = biological target: Estrogen receptor (Homo sapiens) (UniProt P03372); test: qHTS assay to identify small molecule antagonists of the estrogen receptor alpha (ER-alpha) signaling pathway using the BG1 cell line in the presence of 0.1 nM 17-beta-estradiol (AID 1259244); note: nearly all actives have a fitted effect of over 50% in size
[22] = biological target: Estrogen receptor (Homo sapiens) (UniProt P03372); test: qHTS assay to identify small molecule agonists of the estrogen receptor alpha (ER-alpha) signaling pathway in the presence of an antagonist (AID 1259383; calls by dose curve; note: top concentration of the series differs between compounds; nearly all actives have a fitted effect of over 15% in size); conditions: VM7Luc4E2 cells, ERE-luciferase, +ICI-182,780, 22 h; at 92.4 µM (top of the series)
% is set by controls: 0 for no effect and ±100 for the full control effect.

CC[n+]1c(-c2ccccc2)c2cc(N)ccc2c2ccc(N)cc21
active: Potency [1] 24.2 µM and 26.6 µM | Potency [2] 17.1 µM and 2.66 µM

Cc1ncc(C[n+]2csc(CCO)c2C)c(N)n1
inactive: activation ([3]; at 61 µM (top of the series)) -0.473% | Potency [4] | Potency [5]

CNC(=S)S
inactive: activation ([3]; at 61 µM (top of the series)) -0.253% and -0.282% | Potency [2]

C[N+]1(CCC(C(N)=O)(c2ccccc2)c2ccccc2)CCCCC1
inactive: activation ([3]; at 61 µM (top of the series)) 0.134% | Potency [1] | Potency [2]

CC(Cc1ccc(O)cc1)NCC(O)c1cc(O)cc(O)c1 (stereo unspecified)
inactive: Potency [6] | activity change [7] -0.698% | Potency [8] | activation ([3]; at 61 µM (top of the series)) 0.234% | Potency [1] | Potency [9] | activation [10] 4.18% | activity, negative = inhibition [11] 0.139% | Potency [12] | Potency [13] | Potency [14]

COC1CC(=C(c2cccs2)c2cccs2)C[N+](C)(C)C1 (stereo unspecified)
inactive: activation ([3]; at 61 µM (top of the series)) 0.0389% | Potency [1] | Potency [2]

CCOP(=O)(O)C(N)=O
inactive: Potency [1]

CC[N+](CC)(CC)CC
inactive: activation ([3]; at 61 µM (top of the series)) -0.382% | Potency [1] | Potency [2] | Potency [4] | Potency [5] | Potency [15]

C[N+](C)(C)C
inactive: Potency [1] | Potency [2]

O=C1NC(=O)C(=O)C(=O)N1
inactive: activation ([3]; at 78.8 µM (top of the series)) 0.0126% | Potency [1]

Cc1cccc(N)c1
inactive: Potency [1]

O=P1(N(CCCl)CCCl)NCCCO1 (stereo unspecified)
inactive: activation ([3]; at 61 µM (top of the series)) 0.0396% and 0.527% | activation ([3]; at 78.8 µM (top of the series)) -0.518% | Potency [2]

CN
inactive: activation ([3]; at 78.8 µM (top of the series)) 0.0956%

CN(C)C1CSSSC1
inactive: activity change, negative = inhibition [16] 7.08% [at 62.6 µM] | activation [17] 3.74% | Potency [2]

Oc1ccc2c3c1O[C@H]1[C@@H](O)C=C[C@H]4[C@@H](C2)NCC[C@@]341
inactive: Potency [4]

OC[P+](CO)(CO)CO
inactive: activity, negative = inhibition ([18]; at 69.4 µM (top of the series)) 7.34% | activity, negative = inhibition ([18]; at 79.1 µM (top of the series)) -6.64% | Potency [19] | activation ([20]; at 70.3 µM (top of the series)) 3.49% | activation ([20]; at 95 µM (top of the series)) -19.5% | Potency [21] | activation [22] 0.19% and 0.305%
